## scFv variants of Ab-14 (light chain) against a SARS-CoV-2 spike peptide

All variants were tested on one target, the spike HR2 peptide PDVDLGDISGINAS (SARS-CoV-2).

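The starting antibody came from a phage panning campaign against this peptide. The variants were designed computationally from a first round of random CDR variants and then made and measured. Several design methods are mixed in this list. In AlphaSeq, yeast of one mating type display the scFv and yeast of the other type display the target. The frequency of each diploid, read from paired DNA barcodes, reflects how well the two displayed proteins bind. Each replicate has its own calibration line, from reference interactions of the BCL2 family. There are six technical replicates.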

The variants keep the heavy chain, the linker and the frameworks of Ab-14 (scFv order VH, a 15-residue (Gly4Ser)3 linker, VL).
VH: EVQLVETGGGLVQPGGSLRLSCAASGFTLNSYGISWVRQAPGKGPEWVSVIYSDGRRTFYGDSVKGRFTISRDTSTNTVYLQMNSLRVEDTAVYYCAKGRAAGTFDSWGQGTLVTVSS
VL: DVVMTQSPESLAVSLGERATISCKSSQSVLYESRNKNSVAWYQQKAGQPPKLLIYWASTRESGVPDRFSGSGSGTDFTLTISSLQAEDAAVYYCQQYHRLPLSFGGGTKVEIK

Variants are written as CDR1, CDR2 and CDR3 of the light chain (limits as in the source). Parent: KSSQSVLYESRNKNSVA, WASTRES, QQYHRLPLS.
Variants here have more than six changes.
Numbers give log10(Kd / nM), so 0 is 1 nM and 3 is 1 µM. Smaller is tighter.
"nd" marks a missing value. The strain was present, yet no cells mated with the target were sequenced in that replicate, which points to weak or no binding.
Values of this round are not directly comparable with the first-round values of the same sequences.

Variant RVSSMLMAGGIIYNNIA / NTKVLEY / QQYMRLPLM showed 0.73, 0.38, 0.36, 0.37, 0.61, 0.48.
Variant KIQPQLQQSFASKNNVA / DRQLSAE / QQYNRLPLV showed 0.36, 0.06, -0.13, -0.36, 0.05, 0.12.
Variant IVSQLMLWGYHAKNSIA / EAQTKLN / QQYERLPLF showed 0.97, 1.13, 0.50, 0.81, 0.38, 1.19.
Variant KLSMVTGHMSVSKNNVA / EMETRAN / QQYDRLPLA showed 0.60, 1.00, 0.36, 0.79, 0.64, 0.81.
Variant HIDIINRGEDMKQDPIA / QADHREQ / QQYFHLPLA showed 0.43, 0.77, 0.24, 0.48, 0.47, 1.19.
Variant MISQLYNMGQFAINSVA / QASQRNA / QQYDRLPLM showed nd, 0.94, 0.49, nd, nd, 0.89.
Variant MISDLTMGGSRNKNSVA / DLSTRGS / QQYHRLPLS showed -0.01, -0.05, -0.38, -0.38, -0.30, -0.12.
Variant KIGMTLNQLMQKKNNVA / DLVTREE / QQYFRLPLS showed 0.83, 0.51, 0.46, 0.31, 0.30, 0.26.
Variant LISGVWDYGSRNYNSVA / QTSTRES / QQYDRLPLD showed 1.33, 1.46, 1.32, 1.42, 1.40, 1.67.
Variant TISGIMNSQSHVKNNVA / EMSTREK / QQYVRLPLA showed 0.49, 0.28, 0.39, 0.44, 0.39, 0.08.
Variant SMIPFDNQIMKGTNNIA / HTSVRAS / QQYMRLPLV showed 0.53, 0.33, 0.35, 0.50, 0.74, 0.54.
Variant VLQQSGLYESRNKNSVA / SASTRLP / QQYHRLPLS showed 0.35, 0.18, 0.18, 0.13, 0.18, 0.30.
Variant NMRGVEGEIAQHGYSVA / GVDLRAA / QQYARLPLH showed 1.15, 1.24, 1.05, 1.14, 0.97, 1.24.

Excerpt, the first 2 entries:

CDR-L1	CDR-L2	CDR-L3	log10 Kd (nM) by replicate
RVSSMLMAGGIIYNNIA	NTKVLEY	QQYMRLPLM	0.73, 0.38, 0.36, 0.37, 0.61, 0.48
KIQPQLQQSFASKNNVA	DRQLSAE	QQYNRLPLV	0.36, 0.06, -0.13, -0.36, 0.05, 0.12

In the paper, a design with two or fewer of six values counts as a poor binder.
Three control strains display no target. For all light chain designs, 4% of the pairings with them gave a signal, with a median of 2.64 and one signal in twenty below 1.59, so weak values seen in few replicates may be background.
The parent sequence was in this pool as ten entries: three were never detected, three once, and four in most replicates, with averages from 0.34 to 2.37.

Data: MIT Lincoln Laboratory AlphaSeq set, Li et al. 2023, doi:10.1038/s41467-023-39022-2, as distributed in FLAb.